The values that follow come from PubChem BioAssay AID587 (National Center for Advancing Translational Sciences (NCATS), 2007).

The other results are listed elsewhere or left out. Records with an inconclusive call do not appear. Calls of active or inactive are those of the source. Rule as the data show it: active = max dye-equivalent concentration above about 10 nM; inconclusive = between about 1.1 nM and that limit; inactive = weaker than that.

The nature of this assay: qHTS Assay for Spectroscopic Profiling in Texas Red Spectral Region. The note with it: Compound fluorescence, Texas Red channel, 547/618 nm. An excerpt:
NIH Molecular Libraries Screening Centers Network [MLSCN] NIH Chemical Genomics Center [NCGC] […] Occasionally, the artifactual effect may originate from the compound#s own spectral or other biophysical properties which generally tend to track its assay concentration. Pre-screening/profiling the library with respect to the compounds# spectral properties should help one exclude false positives early on. While the most informative fluorescent profiling data set is obtained by performing a full excitation and emission scan of each well by using a monochromator-based plate reader, such an approach is practical only on a very limited scale as scanning each well requires long time. An alternative approach, applied here, is to perform plate reader scans using selected excitation and emission wavelength pairs to generate a multidimensional relational database that correlates compound concentration and the respective relative fluorescence intensity at a given wavelength set. A standard curve of Texas Red (TR) present on each plate as six-point concentration series, was used to compute a normalized fluorescence response, termed dye-equivalent concentration, for each compound at each concentration.
NCGC Assay Protocol Summary: Buffer: 100 mM Tris buffer, pH 8.0 Dye standard plate: The wells in columns 1 through 4 of a Kalypsys polypropylene 1536-well compound plate were filled with standard solutions of fluorophore corresponding to the spectral region of interest. Solutions of TR were placed in the following wells: U1, V1: 3 mM, U2, V2: 300 uM, U3, V3: 30 uM, U4, V4: zero (DMSO), W1, X1: 3 uM, W2, X2: 900 nM, W3, X3: 300 nM, W4, X4: zero (DMSO). Assay Steps: Six uL of buffer were dispensed to 1536-well Greiner black plates. Compounds and dye standards (23 nL) were transferred via Kalypsys PinTool. The plates were incubated for 15 min at room temperature, and then read on ViewLux (Perkin-Elmer) High-throughput CCD imager using 547 nm and 618 nm excitation and emission filter set. Keywords: NIH Roadmap, MLSCN, MLI, MLSMR, qHTS, NCGC, Texas Red, Fluorescent Profiling.
(In general: Quantitative high-throughput screening tests each substance at several concentrations.)
Turning to `Cc1nn(-c2ccccc2)c2c1P(=O)(N1CCOCC1)N(C)C(c1ccccc1)=N2` (stereo not given), the outcome was inactive.
On to `O=P1(Nc2ccc(Br)cn2)COc2ccccc2OC1`, for which the outcome was inactive.
As to `Cc1ccc(OCC(=O)OC2CN3CCC2CC3)cc1` (stereo not given), the molecule was classed as inactive.
On to `CN(CCCl)Cc1cc(Cl)c(NC2=NCCN2)c(Cl)c1`, for which the result was inactive.
As to `O=P1(Nc2ccccn2)COc2ccccc2OC1`, the outcome was inactive.
With `Clc1n[nH]nc1-c1nn[nH][15n]1`, the result was inactive.
For the molecule `Cc1nc2ccc3ccccc3c2s1.O=[N+]([O-])c1cc([N+](=O)[O-])c(O)c([N+](=O)[O-])c1`, the molecule was classed as inactive.
As for `CN(C(=O)Cc1ccc(Cl)c(Cl)c1)[C@@H]1CCCC[C@H]1N1CCCC1`, the molecule was called inactive.
For `Cc1cccc(OCC(=O)OC2CN3CCC2CC3)c1` (stereo not given), the molecule was called inactive.
Take `O=C(CC(=O)c1ccccc1)O[C@H]1CN2CCC1CC2`: the molecule was called inactive.
Turning to `NS(=O)(=O)Cc1ccc([As](=O)(O)O)cc1`, the molecule was classed as inactive.
Turning to `O=P(Nc1nccs1)(c1ccccc1)c1nc2ccccc2s1` (stereo not given), the molecule was called inactive.
As to `CCOP1(=S)c2c(C)nn(CCC#N)c2N=C(c2ccc(F)cc2)N1C` (stereo not given), the result was inactive.
The entry for `COc1ccccc1OP(C)(=O)Nc1ccc(C)cc1` (stereo not given) is “inactive”; for `[N-]=[N+]=NCC(N)=O` it is “inactive”; for `O=[As]c1ccc(S(=O)(=O)NCCO)cc1` (stereo not given) it is “inactive”.
On to `O=C(OC1CN2CCC1CC2)C12CC3CC(CC(C3)C1)C2` (stereo not given), for which the result was inactive.
Take `NC(=O)Nc1cc([As](=O)(O)O)cc(I)c1O`: the result was inactive.
As to `CP(=O)(NC(=O)Nc1ccccc1)Oc1ccccc1` (stereo not given), the call was inactive.
Regarding `O=C(COc1ccccc1)OC1CN2CCC1CC2` (stereo not given), the result was inactive.
The entry for `N1=C(c2nnc(-c3nn[nH]n3)nn2)NNN1` is “inactive”; for `CP(=S)(Nn1cnnc1)Oc1ccccc1` (stereo not given) it is “inactive”.
Take `CN(C(=O)Cc1ccccc1)[C@@H]1CC[C@@]2(CCCO2)C[C@H]1N1CCCC1`: the molecule was called inactive.
The entry for `C/C1=C2N=C(/C=C3N=C(/C(C)=C4\[N-][C@@](C)([C@H]5N=C1[C@@](C)(CCC(=O)NC[C@H](C)OP(=O)([O-])O[C@@H]1[C@H](O)[C@H](n6cnc7cc(C)c(C)cc76)O[C@@H]1CO)[C@@H]5CC(N)=O)[C@](C)(CC(N)=O)[C@H]4CCC(N)=O)[C@@](C)(CC(N)=O)[C@@H]\3CCC(N)=O)C(C)(C)[C@@H]/2CCC(N)=O.[C-]#N.[Co+3]` is “inactive”; for `CCN(CC)CC(O)COC(=O)C(O)(c1ccccc1)C1CCCCC1` (stereo not given) it is “inactive”; for `N#[O+].[C-]#N.[C-]#N.[C-]#N.[C-]#N.[C-]#N.[Fe+2].[Na+].[Na+]` it is “inactive”.
Consider `COc1ccccc1OP(C)(=O)Nc1c(C)n(C)n(-c2ccccc2)c1=O` (stereo not given), for which the result was inactive.
The entry for `CCc1nc2c(n1)c1c(non1O)c1c2no[n+]1[O-]` is “inactive”; for `O=[N+]([O-])c1ccc(C[As](=O)(O)O)cc1` it is “inactive”.
As to `NCC[C@@H](N)CSP(=O)(O)O`, the call was inactive.
As for `Cc1nc2ccc3ccccc3c2o1.O=[N+]([O-])c1cc([N+](=O)[O-])c(O)c([N+](=O)[O-])c1`, the molecule was called inactive.
The entry for `[N-]=[N+]=NCC(O)CN=[N+]=[N-]` (stereo not given) is “inactive”; for `C(Cc1nn[nH]n1)c1nn[nH]n1` it is “inactive”.
`COC(=O)c1cc2c(s1)N=C(c1ccccc1)N(C)P2(=O)N1CCOCC1` (stereo not given): the molecule was classed as inactive.
`O=P1(Nc2nc3ccc(Cl)cc3s2)COc2ccccc2O1` (stereo not given): the molecule was called inactive.
For the molecule `CP(=O)(Nc1ccccc1F)Oc1ccccc1` (stereo not given), the molecule was classed as inactive.
Take `O=P(Nc1nccs1)(c1ccccc1)c1ccccc1`: the molecule was called inactive.
For `CCOP(C)(=S)SCC(=O)NC(C)(CC)C(=O)O` (stereo not given), the outcome was inactive.
The entry for `c1nnnn1CCn1cnnn1` is “inactive”; for `CN1CCC[C@H](OC(=O)C(c2ccccc2)c2ccccc2)C1` it is “inactive”.
In the case of `C[C@@H](O)COc1ccc([As](=O)(O)O)cc1N`, the outcome was inactive.
As to `Cc1ccccc1NP(C)(=O)Nc1ccccc1C`, the molecule was classed as inactive.
Turning to `NNC(NN)NN.n1nc(-c2nn[nH]n2)n[nH]1`, the molecule was classed as inactive.
The entry for `CN(C)CCOC(=O)C(O)(c1ccccc1)C1CCCCC1` (stereo not given) is “inactive”.
For `[N-]=[N+]=Nc1ccc([As](=O)(O)O)cc1`, the outcome was inactive.
